## Yeast mating assay B: variants of the scFv Ab-14

The target is the same throughout: PDVDLGDISGINAS, from the HR2 region of SARS-CoV-2 spike.

Parent scFv Ab-14: VH joined to VL by a 15-residue (Gly4Ser)3 linker. Changes lie in the heavy chain CDRs alone.
VH: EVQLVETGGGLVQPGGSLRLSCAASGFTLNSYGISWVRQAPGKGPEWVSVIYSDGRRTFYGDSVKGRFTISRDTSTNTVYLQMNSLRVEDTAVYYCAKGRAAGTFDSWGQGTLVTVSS
VL: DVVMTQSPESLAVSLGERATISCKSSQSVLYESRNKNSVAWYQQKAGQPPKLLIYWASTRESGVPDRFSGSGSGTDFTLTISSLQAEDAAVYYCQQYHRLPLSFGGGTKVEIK

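Phage display of a naive human antibody library on the peptide gave the parent. This is the validation round: designs drawn from the data on random variants, tested in the same kind of assay. Several design methods are mixed in this list. Affinity was read by AlphaSeq, a pooled yeast mating assay with surface-displayed partners. After mating in shaken culture at 30 °C for 16 h, diploids were selected and their barcode pairs sequenced. Each replicate has its own calibration line, from reference interactions of the BCL2 family. Each pool was mated in six replicate cultures.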

Variants are written as CDR1, CDR2 and CDR3 of the heavy chain (limits as in the source). Parent: GFTLNSYGIS, VIYSDGRRTFYGDSVK, GRAAGTFDS. Variants here have more than six changes. Values are apparent Kd, the geometric mean of the replicates that gave a signal; lower means stronger binding. An entry "nd" has no value in the source: the pair was not observed among the diploids in any replicate. This suggests poor binding but is not conclusive. Of ten entries with the parent sequence, four were seen in most replicates (averages 2.2 nM to 240 nM), three in one and three in none, so single entries are noisy.

CDR-H1	CDR-H2	CDR-H3	apparent Kd	replicates with signal
GFDLNEYGIS	VIYADGRRTFYTDSVK	GQLAGTFDM	490 pM	6 of 6
GFDLDEYGIS	VIYADGRRTFYADSVK	GELAGTFFV	4.0 nM	5 of 6
GFDLNEYGIS	VIYADGTRKSYADNVK	GYQHSVVSI	nd	0 of 6
GFDLNEYGIS	VIYADGMRTVYTDSVK	GENAGTFDV	240 pM	6 of 6
GFDLNEYGIS	VIYADGRRTFYSDSVK	GANGGTFDI	740 pM	6 of 6
GFKLEEYGIS	VIYADGQRVAYQDKVK	GKHAGMFDV	26 nM	3 of 6
GFDLNEYGIS	VIYADGRRTFYADSVK	GNNAGTFDL	170 pM	6 of 6
GFDLDEYGIS	VIYADGMRTAYADSVK	GGNAGTFDT	630 pM	6 of 6
GFDINEYGIS	VIYADGRRTAYADSVK	GQTAGTFDV	220 pM	6 of 6
GFDIEEYGIS	VIYADGSRTEYSDSVK	SGYTFNMDL	nd	0 of 6
GFDLNEYGIS	VIYADGMRTFYADSVK	GEQAGTFDV	210 pM	6 of 6
GFDIEKYGIS	VIYADGQRQAYDSSVK	GEEAGNFHV	nd	0 of 6
GFNLDEYGIS	VIYADGVRKAYASKVK	GKVHWFNLQ	nd	0 of 6
GFDLDEYGIS	VIYADGVRTAYSDDVK	GENAGTFDV	1.3 nM	6 of 6
GSKLDEYGIS	VIYADGVRTAYIEDVK	GQSGVSVVN	nd	0 of 6
GFSLDEYGIS	VIYADGKRQVYANTVK	GNKTMTFDI	34 nM	1 of 6
GFDLDEYGIS	VIYADGMRTAYSDSVK	GNEAGTFDL	170 pM	6 of 6
GFEIEEYGIS	VIYADGQRKSYINSVK	GKVDVTVMY	320 pM	6 of 6
GFDVDEYGIS	VIYADGKRTSYQADVK	GSQVGNALV	nd	0 of 6
GFDLDEYGIS	VIYADGQRTAYSDSVK	GNEAGTFDV	340 pM	6 of 6
GFDLNEYGIS	VIYADGIRQAYEDNVK	GRNIINLLF	nd	0 of 6
GFTLNFYGIS	VIYSDGRRVFYSDSVK	RNAAGFFDH	4.9 nM	1 of 6
GFNLNEYGIS	VIYADGQRKFYADSVK	GNTAGTFDS	nd	0 of 6
GFDLNEYGIS	VIYADGVRTAYADDVK	GNNAGTFDI	2.1 nM	6 of 6
GFDLNEYGIS	VIYADGMRTAYVDDVK	GENAGTFDM	490 pM	6 of 6
GFDLGEYGVS	VIYADGTRAQYANKVK	GNISYAFTV	250 nM	2 of 6
GFDLDEYGIS	VIYADGRRTFYTDSVK	GEFAGTFDE	nd	0 of 6
GFTIDEYGIS	VIYADGSRVAYDDKFK	GMLVGTFDQ	nd	0 of 6
GFGLDEFGIS	VIYADGLRSSYVDDVK	GELTGGFIV	nd	0 of 6
GFDLNEYGIS	VIYADGMRTFYADSVK	GETAGTFDI	400 pM	6 of 6
GFDLNEYGIS	VIYADGQRTAYADSVK	GNNAGTFDV	1.3 nM	6 of 6
GFDLDEYGIS	VIYADGMRTAYADNVK	GEVAGTFDT	440 pM	6 of 6
GFDLNEYGIS	VIYADGKRTAYIDSVK	GEVAGTFDL	1.6 nM	6 of 6
GFDLNEYGIS	VIYADGMRTAYSDSVK	GHNAGTFDI	280 pM	6 of 6
GFDLNEYGIS	VIYADGRRTAYADSVK	GNQAGTFDI	570 pM	6 of 6
GFDLEEYGIS	VIYADGVRTAYKNKVK	GWIAGGQFD	nd	0 of 6
GFDLNEYGIS	VIYADGKRTAYTDSVK	GENAGTFDI	410 pM	6 of 6
GFDIDEYGIS	VIYADGSRTAYSKNFK	GEDGIMLLF	nd	0 of 6
GFNLNEYGIS	VIYADGKRTFYSNSVK	GEAAGTFDV	nd	0 of 6
GFNLDEYGIS	VIYADGQRTYYAEDVK	GKTGDHLFI	nd	0 of 6
GFDLNEYGVS	VIYADGFRTSYTDSVK	GAVVDLSMA	nd	0 of 6
GFDLNEYGIS	VIYADGQRTAYADSVK	GNNAGTFDM	12 nM	6 of 6
GFSLNEYGIS	VIYADGLRSKYQDKVK	GELALSGDT	nd	0 of 6
GFDLNEYGIS	VIYADGIRSRYANKVK	GNGAGTLLI	nd	0 of 6
GFDLNEYGIS	VIYADGRRTFYADSFK	GEIAGTFDQ	330 pM	6 of 6
GNNLDEYGIS	VIYADGQRTYYAEAVK	GSNDSGITV	nd	0 of 6
GFNLDEYGIS	VIYADGQRTYYTQKVK	GGIQDGNMG	nd	0 of 6
GFDLNEYGIS	VIYADGQRTAYSDSVK	GENAGTFDM	1.8 nM	6 of 6
GFGLDEYGIS	VIYADGVRTFYADSVK	GENAGTFFM	230 nM	1 of 6
GFDINEYGIS	VIYADGMRTAYADSVK	GQNAGTFDV	850 pM	6 of 6
GFDLNEYGIS	VIYADGRRTAYADNVK	GNTAGTFDV	370 pM	6 of 6
GFDLNEYGIS	VIYADGIRTFYADSVK	GNAAGTFDT	540 pM	6 of 6
GFDLDEYGIS	VIYADGRRTFYADSVK	GTNAGTFVS	150 nM	2 of 6
GFDLDEYGIS	VIYADGMRKAYADSVK	GENAGTFDL	38 pM	6 of 6
GFDLNEYGIS	VIYADGKRTAYTDSVK	GNVAGTFDI	1.5 nM	6 of 6
GMGIDEYGIS	VIYADGMRSAYANSVK	GAHAGGIVW	4.2 µM	1 of 6
GFTLNDYGIS	VIYSDIRRTFYIDSVK	GNEMGTFDL	nd	0 of 6
GFDLNEYGIS	VIYADGKRTAYADSVK	GDNAGTFDV	980 pM	6 of 6
GFNLNEYGIS	VIYADGRRTFYADSVK	GEIAGTFDE	1.2 nM	6 of 6
GFNLDEYGIS	VIYADGQRTAYADSVK	GENAGTFDV	580 pM	6 of 6
GFNLDEYGIS	VIYADGQRTFYADSVK	GSHAGTFDT	220 pM	6 of 6
GFDVNEYGIS	VIYADGTRTAYANTVK	GKVVGVFVD	nd	0 of 6
GFDLNEYGIS	VIYADGRRTAYANSVK	GETAGTFDV	190 pM	6 of 6
GFDLNEYGIS	VIYADGRRTFYTDSVK	GTEAGTFDV	270 pM	6 of 6
GFDLDEYGIS	VIYADGRRTAYVDSVK	GNQAGTFDV	230 pM	6 of 6
GFNLDEYGVS	VIYADGMRMAYQNDVK	GQKGDVFFM	2.5 nM	6 of 6
GFALDKYGIS	VIYADGSRTVYADDVK	GMLGATFGV	nd	0 of 6
GFDLNEYGIS	VIYADGQRTAYADSVK	GKIAGTFDS	130 pM	6 of 6
GFDLNEYGIS	VIYADGMRTAYIDSVK	GGNAGTFDV	350 pM	6 of 6
GFDLNEYGIS	VIYADGMRTAYSDSVK	GNNAGTFDL	170 pM	6 of 6
GFDLDEYGIS	VIYADGRRTFYADSVK	GELAGTFDK	6.2 nM	6 of 6

A selection of 10 entries from above:

CDR-H1,CDR-H2,CDR-H3,apparent Kd,replicates with signal
GFDLDEYGIS,VIYADGMRTAYADSVK,GGNAGTFDT,630 pM,6 of 6
GFTIDEYGIS,VIYADGSRVAYDDKFK,GMLVGTFDQ,nd,0 of 6
GFSLNEYGIS,VIYADGLRSKYQDKVK,GELALSGDT,nd,0 of 6
GFDINEYGIS,VIYADGRRTAYADSVK,GQTAGTFDV,220 pM,6 of 6
GFDLGEYGVS,VIYADGTRAQYANKVK,GNISYAFTV,250 nM,2 of 6
GNNLDEYGIS,VIYADGQRTYYAEAVK,GSNDSGITV,nd,0 of 6
GFDLNEYGIS,VIYADGRRTFYADSFK,GEIAGTFDQ,330 pM,6 of 6
GFDLNEYGIS,VIYADGIRTFYADSVK,GNAAGTFDT,540 pM,6 of 6
GFSLDEYGIS,VIYADGKRQVYANTVK,GNKTMTFDI,34 nM,1 of 6
GFNLDEYGIS,VIYADGQRTYYAEDVK,GKTGDHLFI,nd,0 of 6

Three control strains display no target. For all heavy chain designs, 1% of the pairings with them gave a signal, with a median of 120 nM and one signal in twenty below 7.0 nM, so weak values seen in few replicates may be background. The authors averaged sequences with at least three values out of six and counted those with two or fewer as poor binders. The range of this assay differs from that of the first round, and the authors advise against merging the two.

Data: MIT Lincoln Laboratory AlphaSeq set, Li et al. 2023, doi:10.1038/s41467-023-39022-2, as distributed in FLAb.